SMILES strings stand for the structures.

The chains behind the UniProt entries cited, without tags or fusion partners. Where a name states a change or a piece, a line headed by the entry shows the natural chain unless it says otherwise. Residues count along the entry.
UniProt P06276, 29-602: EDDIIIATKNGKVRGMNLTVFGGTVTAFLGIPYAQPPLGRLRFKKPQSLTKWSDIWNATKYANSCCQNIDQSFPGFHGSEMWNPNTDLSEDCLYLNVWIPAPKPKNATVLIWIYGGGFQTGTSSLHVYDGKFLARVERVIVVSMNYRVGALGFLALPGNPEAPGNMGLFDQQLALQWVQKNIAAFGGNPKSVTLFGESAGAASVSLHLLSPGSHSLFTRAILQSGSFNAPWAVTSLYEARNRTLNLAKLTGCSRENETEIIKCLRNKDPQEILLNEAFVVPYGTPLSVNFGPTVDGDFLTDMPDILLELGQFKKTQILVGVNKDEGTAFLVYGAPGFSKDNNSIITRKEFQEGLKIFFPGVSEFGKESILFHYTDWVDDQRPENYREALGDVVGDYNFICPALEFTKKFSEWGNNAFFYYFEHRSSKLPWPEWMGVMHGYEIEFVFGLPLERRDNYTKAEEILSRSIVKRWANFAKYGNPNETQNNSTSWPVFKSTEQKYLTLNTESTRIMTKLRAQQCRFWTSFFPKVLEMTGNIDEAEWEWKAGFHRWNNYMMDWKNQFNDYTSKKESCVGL
UniProt P22303: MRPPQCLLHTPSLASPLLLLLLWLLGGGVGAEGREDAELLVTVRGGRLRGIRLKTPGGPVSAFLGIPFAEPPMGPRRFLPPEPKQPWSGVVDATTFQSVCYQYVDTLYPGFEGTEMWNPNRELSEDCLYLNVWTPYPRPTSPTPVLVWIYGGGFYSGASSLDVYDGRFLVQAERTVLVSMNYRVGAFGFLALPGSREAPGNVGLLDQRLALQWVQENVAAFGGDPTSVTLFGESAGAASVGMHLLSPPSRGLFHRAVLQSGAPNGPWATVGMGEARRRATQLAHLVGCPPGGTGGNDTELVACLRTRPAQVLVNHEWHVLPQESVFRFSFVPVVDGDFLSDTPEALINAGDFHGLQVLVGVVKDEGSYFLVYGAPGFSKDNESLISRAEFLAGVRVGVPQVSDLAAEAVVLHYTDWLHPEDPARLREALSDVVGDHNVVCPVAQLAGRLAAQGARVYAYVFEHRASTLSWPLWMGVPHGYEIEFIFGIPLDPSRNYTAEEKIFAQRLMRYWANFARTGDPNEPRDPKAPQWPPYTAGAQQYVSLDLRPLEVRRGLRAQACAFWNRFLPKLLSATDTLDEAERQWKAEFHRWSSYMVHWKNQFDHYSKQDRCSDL

In one assay the target is plasma BChE (Homo sapiens, UniProt P06276). The assay can be described thus: biochemical.
A further assay has as its target human erythrocyte AChE (Homo sapiens, UniProt P22303). The class given is biochemical. The settings on record: pH 8.

By IC50 is commonly meant the midpoint of a concentration-inhibition curve. In the case of `CC(C)c1ccc(NC(=O)Oc2ccc3c(c2)[C@]2(C)CCN(C)[C@@H]2N3C)cc1` [Ex. 9, (-)-4'isopropylcarbamoyleseroline], the IC50 against plasma BChE amounted to 0.0513 ± 0.0009 µM; on human erythrocyte AChE it was 0.758 ± 0.0212 µM. As to `CNC(=O)Oc1ccc2c(c1)[C@]1(C)CCN[C@@H]1N2C` [(2) (-)-N(1)-Norphysostigmine, (-)-(Nl)-norphysostigmine, reference compound], the 50% inhibitory concentration (IC50) against plasma BChE was found to be 0.002 ± 0.001 µM.

For the origin of these results see US5171750A (priority 1991, dated 1992).
